Only a part of the results on these compounds is given; other tests are left out.
Tested on: lettuce seedlings (Lactuca sativa L.)
Assay: Soil bioassay, lettuce root growth
Type: in vivo
Conditions: no m-tyrosine

## ammonium nitrate (NH4NO3)
Ammonium nitrate 0.125 mM
  Root Length of Lettuce Seedlings: 6.79 (0.32) cm
Ammonium nitrate 0.25 mM
  Root Length of Lettuce Seedlings: 7.00 (0.29) cm
Ammonium nitrate 0.5 mM
  Root Length of Lettuce Seedlings: 7.13 (0.35) cm
Ammonium nitrate 1.0 mM
  Root Length of Lettuce Seedlings: 6.88 (0.47) cm

From patent US8461085B2, “Bioherbicide from Festuca spp” (Cornell Research Foundation, Inc., priority 2005, dated 2013)
